Results published in patent publication US20240360179A1, “STAPLED PEPTIDES AND METHODS THEREOF” (FOG PHARMACEUTICALS, INC., priority 2021, published 2024).
Read-outs that look alike come from different tables or passages of the source.

Chains of the proteins cited; added tags and fusions are not shown.
UniProt P35222, whole entry: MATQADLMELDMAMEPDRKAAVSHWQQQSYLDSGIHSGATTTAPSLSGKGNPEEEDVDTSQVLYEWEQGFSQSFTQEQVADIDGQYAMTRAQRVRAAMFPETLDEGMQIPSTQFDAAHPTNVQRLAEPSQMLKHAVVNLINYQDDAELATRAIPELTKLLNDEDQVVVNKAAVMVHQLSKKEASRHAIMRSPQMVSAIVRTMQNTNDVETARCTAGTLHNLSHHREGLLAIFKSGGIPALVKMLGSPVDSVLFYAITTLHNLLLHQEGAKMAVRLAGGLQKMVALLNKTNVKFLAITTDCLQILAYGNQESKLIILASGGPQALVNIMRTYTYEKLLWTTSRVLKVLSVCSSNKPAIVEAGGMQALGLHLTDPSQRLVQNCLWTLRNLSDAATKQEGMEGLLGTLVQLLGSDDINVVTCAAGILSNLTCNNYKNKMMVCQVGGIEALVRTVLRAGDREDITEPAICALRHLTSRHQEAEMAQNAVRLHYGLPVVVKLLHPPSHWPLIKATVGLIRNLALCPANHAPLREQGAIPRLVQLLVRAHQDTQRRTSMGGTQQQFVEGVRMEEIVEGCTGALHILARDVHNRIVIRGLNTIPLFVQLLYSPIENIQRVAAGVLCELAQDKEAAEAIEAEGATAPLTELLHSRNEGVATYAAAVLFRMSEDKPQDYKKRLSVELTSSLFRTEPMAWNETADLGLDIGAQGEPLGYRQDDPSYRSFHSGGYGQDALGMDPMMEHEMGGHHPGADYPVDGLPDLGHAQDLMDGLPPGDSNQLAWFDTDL

Experiments:
[1] = target: beta-catenin/TCF4 interaction (Homo sapiens, UniProt P35222); format: cell-based; parameters: host or cells: HEK293; details: read-out: NanoBRET Abs IC50
[2] = target: T1, full-length B-Catenin (Uniprot ID P35222) (Homo sapiens, UniProt P35222); format: binding; details: competition fluorescence polarization; read-out: beta-Catenin FP IC50
T1 construct: 10 nM full-length B-Catenin (Uniprot ID P35222)

| Substance | IC50 [1] [nM] | IC50 [2] [nM] | IC50 ([1]; absolute IC50) [nM] |
| --- | --- | --- | --- |
| Ac-PL3-Asp-Lys**3-B5-Asp-3COOHF-GlnR**3-Ala-Phe-Lys*3-PyrS2-3Thi-BztA-GlnR*3-Ala-NH2 [I-743] | > 10000 | 200 to 750 |  |
| Ac-PL3-Asp-Npg-B5-3COOHF-Asp-Aib-Ala-Phe-Lys*3-PyrS2-3Thi-BztA-GlnR*3-Ala-NH2 [I-742] | > 10000 | > 1000 |  |
| Ac-PL3-Asp-Npg-B5-Asp-3COOHF-Aib-Ala-2Thi-Lys*3-PyrS2-2Thi-34ClF-GlnR*3-Ala-NH2 [I-921] | 3000 to 10000 | 50 to 200 |  |
| Ac-PL3-Asp-Npg-B5-Asp-3COOHF-Aib-Ala-2Thi-Lys*3-PyrS2-2Thi-34ClF-GlnR*3-Ala-NH2 [I-922] | 3000 to 10000 | < 50 |  |
| Ac-PL3-Asp-Npg-B5-Asp-3COOHF-Aib-Ala-Phe-1MeK*3-PyrS2-3Thi-BztA-GlnR*3-Ala-NH2 [I-711] | 1500 to 3000 | < 50 |  |
| Ac-PL3-Asp-Npg-B5-Asp-3COOHF-Aib-Ala-Phe-1MeK*3-PyrS2-3Thi-BztA-hGlnR*3-Ala-NH2 [I-710] | 1500 to 3000 | < 50 |  |
| Ac-PL3-Asp-Npg-B5-Asp-3COOHF-Aib-Ala-Phe-Lys*3-Az2-3Thi-BztA-GlnR*3-Ala-NH2 [I-947] | > 10000 | < 50 |  |
| Ac-PL3-Asp-Npg-B5-Asp-3COOHF-Aib-Ala-Phe-Lys*3-Az3-3Thi-BztA-GlnR*3-Ala-NH2 [I-948] | > 10000 | < 50 |  |
| Ac-PL3-Asp-Npg-B5-Asp-3COOHF-Aib-Ala-Phe-Lys*3-PyrS1-3Thi-BztA-GlnR*3-Ala-NH2 [I-1023] | > 10000 | < 50 |  |
| Ac-PL3-Asp-Npg-B5-Asp-3COOHF-Aib-Ala-Phe-Lys*3-PyrS2-2F3MeF-34ClF-GlnR*3-NH2 [I-862] | 1500 to 3000 | < 50 |  |
| Ac-PL3-Asp-Npg-B5-Asp-3COOHF-Aib-Ala-Phe-Lys*3-PyrS2-2F3MeF-34ClF-GlnR*3-Pro-NH2 [I-864] | 3000 to 10000 | < 50 |  |
| Ac-PL3-Asp-Npg-B5-Asp-3COOHF-Aib-Ala-Phe-Lys*3-PyrS2-2F3MeF-34ClF-GlnR*3-Ser-NH2 [I-865] | 3000 to 10000 | < 50 |  |
| Ac-PL3-Asp-Npg-B5-Asp-3COOHF-Aib-Ala-Phe-Lys*3-PyrS2-2Thi-34ClF-GlnR*3-Ala-NH2 [I-913] | 1500 to 3000 | < 50 |  |
| Ac-PL3-Asp-Npg-B5-Asp-3COOHF-Aib-Ala-Phe-Lys*3-PyrS2-2Thi-34ClF-GlnR*3-Ala-NH2 [I-914] | 3000 to 10000 | < 50 |  |
| Ac-PL3-Asp-Npg-B5-Asp-3COOHF-Aib-Ala-Phe-Lys*3-PyrS2-2Thi-34ClF-GlnR*3-Leu-Ser-NH2 [I-915] | 3000 to 10000 | < 50 |  |
| Ac-PL3-Asp-Npg-B5-Asp-3COOHF-Aib-Ala-Phe-Lys*3-PyrS2-2Thi-BztA-GlnR*3-Leu-Ser-NH2 [I-925] | 1500 to 3000 | < 50 |  |
| Ac-PL3-Asp-Npg-B5-Asp-3COOHF-Aib-Ala-Phe-Lys*3-PyrS2-2Thi-BztA-GlnR*3-NH2 [I-923] | 1500 to 3000 | < 50 |  |
| Ac-PL3-Asp-Npg-B5-Asp-3COOHF-Aib-Ala-Phe-Lys*3-PyrS2-2Thi-BztA-GlnR*3-NH2 [I-924] | 3000 to 10000 | < 50 |  |
| Ac-PL3-Asp-Npg-B5-Asp-3COOHF-Aib-Ala-Phe-Lys*3-PyrS2-3Thi-34ClF-GlnR*3-Ala-Ala-Ala-[mPEG37]-Lys [I-1708] | > 10000 | < 50 |  |
| Ac-PL3-Asp-Npg-B5-Asp-3COOHF-Aib-Ala-Phe-Lys*3-PyrS2-3Thi-34ClF-GlnR*3-NH2 [I-867] | < 1500 | < 50 |  |
| Ac-PL3-Asp-Npg-B5-Asp-3COOHF-Aib-Ala-Phe-Lys*3-PyrS2-3Thi-34ClF-GlnR*3-Phe-NH2 [I-870] | 3000 to 10000 | < 50 |  |
| Ac-PL3-Asp-Npg-B5-Asp-3COOHF-Aib-Ala-Phe-Lys*3-PyrS2-3Thi-34ClF-GlnR*3-Pro-NH2 [I-868] | 3000 to 10000 | < 50 |  |
| Ac-PL3-Asp-Npg-B5-Asp-3COOHF-Aib-Ala-Phe-Lys*3-PyrS2-3Thi-34ClF-GlnR*3-Ser-NH2 [I-869] | 1500 to 3000 | < 50 |  |
| Ac-PL3-Asp-Npg-B5-Asp-3COOHF-Aib-Ala-Phe-Lys*3-PyrS2-3Thi-BztA-GlnR*3-Aib-Ala-NH2 [I-405] |  | < 50 | < 1500 |
| Ac-PL3-Asp-Npg-B5-Asp-3COOHF-Aib-Ala-Phe-Lys*3-PyrS2-3Thi-BztA-GlnR*3-Ala-Ala-Ala-Ala-Ala-NH2 [I-783] | 3000 to 10000 | < 50 |  |
| Ac-PL3-Asp-Npg-B5-Asp-3COOHF-Aib-Ala-Phe-Lys*3-PyrS2-3Thi-BztA-GlnR*3-Ala-Ala-Ala-Leu-NH2 [I-807] | 3000 to 10000 | < 50 |  |
| Ac-PL3-Asp-Npg-B5-Asp-3COOHF-Aib-Ala-Phe-Lys*3-PyrS2-3Thi-BztA-GlnR*3-Ala-Ala-Ala-NH2 [I-782] | 1500 to 3000 | < 50 |  |

| Substance | IC50 [1] [nM] | IC50 [2] [nM] | IC50 ([1]; absolute IC50) [nM] |
| --- | --- | --- | --- |
| Ac-PL3-Asp-Npg-B5-Asp-3COOHF-Aib-Ala-Phe-Lys*3-PyrS2-3Thi-BztA-GlnR*3-Ala-Ala-Leu-Leu-NH2 [I-806] | 1500 to 3000 | < 50 |  |
| Ac-PL3-Asp-Npg-B5-Asp-3COOHF-Aib-Ala-Phe-Lys*3-PyrS2-3Thi-BztA-GlnR*3-Ala-Ala-Leu-NH2 [I-804] | < 1500 | < 50 |  |
| Ac-PL3-Asp-Npg-B5-Asp-3COOHF-Aib-Ala-Phe-Lys*3-PyrS2-3Thi-BztA-GlnR*3-Ala-Ala-Leu-NH2 [I-805] | 1500 to 3000 | < 50 |  |
| Ac-PL3-Asp-Npg-B5-Asp-3COOHF-Aib-Ala-Phe-Lys*3-PyrS2-3Thi-BztA-GlnR*3-Ala-Ala-Lys-Leu-Pro-Val-nLeu-NH2 [I-815] | 3000 to 10000 | < 50 |  |
| Ac-PL3-Asp-Npg-B5-Asp-3COOHF-Aib-Ala-Phe-Lys*3-PyrS2-3Thi-BztA-GlnR*3-Ala-Ala-Val-Pro-Ala-Leu-Arg-NH2 [I-817] | 1500 to 3000 | < 50 |  |
| Ac-PL3-Asp-Npg-B5-Asp-3COOHF-Aib-Ala-Phe-Lys*3-PyrS2-3Thi-BztA-GlnR*3-Ala-Ala-Val-Pro-Thr-Leu-Lys-NH2 [I-813] | 1500 to 3000 | < 50 |  |
| Ac-PL3-Asp-Npg-B5-Asp-3COOHF-Aib-Ala-Phe-Lys*3-PyrS2-3Thi-BztA-GlnR*3-Ala-Lys-Leu-Pro-Val-nLeu-NH2 [I-814] | 3000 to 10000 | < 50 |  |
| Ac-PL3-Asp-Npg-B5-Asp-3COOHF-Aib-Ala-Phe-Lys*3-PyrS2-3Thi-BztA-GlnR*3-Ala-Val-Pro-Ala-Leu-Arg-NH2 [I-816] | < 1500 | < 50 |  |
| Ac-PL3-Asp-Npg-B5-Asp-3COOHF-Aib-Ala-Phe-Lys*3-PyrS2-3Thi-BztA-GlnR*3-Ala-Val-Pro-Thr-Leu-Lys-NH2 [I-812] | 1500 to 3000 | < 50 |  |
| Ac-PL3-Asp-Npg-B5-Asp-3COOHF-Aib-Ala-Phe-Lys*3-PyrS2-3Thi-BztA-GlnR*3-Asn-NH2 [I-723] | 1500 to 3000 | < 50 |  |
| Ac-PL3-Asp-Npg-B5-Asp-3COOHF-Aib-Ala-Phe-Lys*3-PyrS2-3Thi-BztA-GlnR*3-Gln-NH2 [I-724] | 1500 to 3000 | < 50 |  |
| Ac-PL3-Asp-Npg-B5-Asp-3COOHF-Aib-Ala-Phe-Lys*3-PyrS2-3Thi-BztA-GlnR*3-Gly-NH2 [I-714] | < 1500 | < 50 |  |
| Ac-PL3-Asp-Npg-B5-Asp-3COOHF-Aib-Ala-Phe-Lys*3-PyrS2-3Thi-BztA-GlnR*3-Leu-Asp-Leu-NH2 [I-503] |  | < 50 | 3000 to 10000 |
| Ac-PL3-Asp-Npg-B5-Asp-3COOHF-Aib-Ala-Phe-Lys*3-PyrS2-3Thi-BztA-GlnR*3-Leu-Glu-Leu-NH2 [I-505] |  | < 50 | 3000 to 10000 |
| Ac-PL3-Asp-Npg-B5-Asp-3COOHF-Aib-Ala-Phe-Lys*3-PyrS2-3Thi-BztA-GlnR*3-Leu-NH2 [I-715] | < 1500 | < 50 |  |
| Ac-PL3-Asp-Npg-B5-Asp-3COOHF-Aib-Ala-Phe-Lys*3-PyrS2-3Thi-BztA-GlnR*3-Leu-NH2 [I-716] | 1500 to 3000 | < 50 |  |
| Ac-PL3-Asp-Npg-B5-Asp-3COOHF-Aib-Ala-Phe-Lys*3-PyrS2-3Thi-BztA-GlnR*3-Leu-Ser-NH2 [I-785] | 1500 to 3000 | < 50 |  |
| Ac-PL3-Asp-Npg-B5-Asp-3COOHF-Aib-Ala-Phe-Lys*3-PyrS2-3Thi-BztA-GlnR*3-NH2 [I-712] | < 1500 | < 50 |  |
| Ac-PL3-Asp-Npg-B5-Asp-3COOHF-Aib-Ala-Phe-Lys*3-PyrS2-3Thi-BztA-GlnR*3-Npg-NH2 [I-717] | 1500 to 3000 | < 50 |  |
| Ac-PL3-Asp-Npg-B5-Asp-3COOHF-Aib-Ala-Phe-Lys*3-PyrS2-3Thi-BztA-GlnR*3-Npg-NH2 [I-718] | 3000 to 10000 | < 50 |  |
| Ac-PL3-Asp-Npg-B5-Asp-3COOHF-Aib-Ala-Phe-Lys*3-PyrS2-3Thi-BztA-GlnR*3-Trp-NH2 [I-725] | 3000 to 10000 | < 50 |  |
| Ac-PL3-Asp-Npg-B5-Asp-3COOHF-Aib-Ala-Phe-Lys*3-PyrS2-3Thi-BztA-GlnR*3-Trp-NH2 [I-726] | 3000 to 10000 | 50 to 200 |  |
| Ac-PL3-Asp-Npg-B5-Asp-3COOHF-Aib-Ala-Phe-Lys*3-PyrS2-3Thi-BztA-GlnR*3-Tyr-NH2 [I-727] | 1500 to 3000 | < 50 |  |
| Ac-PL3-Asp-Npg-B5-Asp-3COOHF-Aib-Ala-Phe-Lys*3-PyrS2-3Thi-BztA-GlnR*3-Val-Asp-Leu-NH2 [I-513] |  | < 50 | 3000 to 10000 |
| Ac-PL3-Asp-Npg-B5-Asp-3COOHF-Aib-Ala-Phe-Lys*3-PyrS2-3Thi-BztA-GlnR*3-Val-Thr-Ala-NH2 [I-509] |  | < 50 | 1500 to 3000 |
| Ac-PL3-Asp-Npg-B5-Asp-3COOHF-Aib-Ala-Phe-Lys*3-PyrS2-3Thi-BztA-GlnR*3-Val-aThr-Ala-NH2 [I-511] |  | < 50 | 1500 to 3000 |
